Data on one compound can be found in patent publication US20220251105A1, “METHODS OF TREATING A MK2-MEDIATED DISORDER” (Celgene CAR LLC, priority 2019, published 2022).

Sequences of proteins named here, by UniProt entry; tags and fusion partners are left off. Residues count along the entry.
UniProt P49138, whole entry: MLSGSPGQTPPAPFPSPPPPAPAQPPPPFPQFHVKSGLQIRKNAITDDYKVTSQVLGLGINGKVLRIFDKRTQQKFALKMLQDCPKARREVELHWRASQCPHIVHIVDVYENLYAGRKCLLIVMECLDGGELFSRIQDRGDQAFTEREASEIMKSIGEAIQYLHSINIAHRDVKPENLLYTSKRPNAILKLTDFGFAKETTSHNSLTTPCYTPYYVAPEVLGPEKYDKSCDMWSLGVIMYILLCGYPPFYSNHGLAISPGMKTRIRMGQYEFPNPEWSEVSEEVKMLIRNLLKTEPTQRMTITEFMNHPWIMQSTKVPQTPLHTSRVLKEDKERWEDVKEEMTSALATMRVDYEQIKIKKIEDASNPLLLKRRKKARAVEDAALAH
UniProt P49137, whole entry: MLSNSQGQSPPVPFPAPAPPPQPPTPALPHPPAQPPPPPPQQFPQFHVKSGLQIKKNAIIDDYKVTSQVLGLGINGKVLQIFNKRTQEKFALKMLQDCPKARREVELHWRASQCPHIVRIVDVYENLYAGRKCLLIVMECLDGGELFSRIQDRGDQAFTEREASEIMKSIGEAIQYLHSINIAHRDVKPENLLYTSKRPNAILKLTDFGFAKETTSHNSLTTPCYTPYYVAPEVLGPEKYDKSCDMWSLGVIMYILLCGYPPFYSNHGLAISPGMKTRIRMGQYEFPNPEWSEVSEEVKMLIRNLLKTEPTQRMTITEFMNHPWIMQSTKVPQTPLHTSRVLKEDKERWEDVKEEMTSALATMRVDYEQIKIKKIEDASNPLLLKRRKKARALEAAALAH
UniProt Q80ZF4, 1-386: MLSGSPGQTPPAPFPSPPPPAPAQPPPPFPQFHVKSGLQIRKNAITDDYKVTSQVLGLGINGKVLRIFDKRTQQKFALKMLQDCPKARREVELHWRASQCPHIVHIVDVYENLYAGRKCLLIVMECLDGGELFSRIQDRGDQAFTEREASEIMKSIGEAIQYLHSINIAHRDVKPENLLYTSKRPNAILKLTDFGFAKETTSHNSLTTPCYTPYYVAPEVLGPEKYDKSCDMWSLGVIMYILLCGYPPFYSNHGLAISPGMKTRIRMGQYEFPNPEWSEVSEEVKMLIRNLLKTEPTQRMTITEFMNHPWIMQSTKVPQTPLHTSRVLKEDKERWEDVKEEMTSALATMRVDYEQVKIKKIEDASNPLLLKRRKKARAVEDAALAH

Like-named read-outs stand apart in the source and are kept apart here. Marks after values point to notes of the source that are not given here.

In assay [1] the target is MK2 (Mus musculus, UniProt P49138). The conditions noted are these: 3 mg/kg.
Assay [2] concerns the target T1, MK2 (Homo sapiens, UniProt P49137). The conditions noted are these: target peptide 133[…]149 (Cys140); 10-fold molar excess, 1 hour, room temperature.
Assay [3] has as its target T2, MK2 (Rattus norvegicus, UniProt Q80ZF4). The conditions noted are these: HLA-B27Tg model of AS in rats.
Assay [4] concerns the target T1, MK2.
For assay [5], the target named is T2, MK2. The assay is described as follows: in vivo.
The target in assay [6] is T1, MK2. This is another data set of the same source.
The mark [7] stands for this setting: CAIA, 24 hours following the last dose.
Where [8] appears, read: read-out: Mean PBMC Occupancy (%).
[9] abbreviates: read-out: Mean Spleen Occupancy (%).

`CCOCc1cnc(Cl)nc1Oc1ccc2c(ccc3sc4c(c32)NC[C@@H](C)NC4=O)n1` [Compound 1]: the “% MK2 Occupied, PBMC” value is given as “PBMC: 51 ± 16^c %” in assay [1] (setting [7]); “PBMC: 38 ± 3^d %” in assay [1] (imiquimod model, 8 hours following the last dose); “PBMC: 47 ± 12^d %” in assay [1] (mannan PsA model, 8 hours following the last dose). Moreover, in assay [1] (setting [7]), the “% MK2 Occupied, Spleen” value is given as “Spleen: 28 ± 16^c %”. Moreover, in assay [2], the “Observed Mass of Modified Peptide” value is recorded as 2388.43 Da. The “TE associated with a greater decrease in paw swelling than etanercept and tofacitinib” value in assay [3] is given as “approximately 70%”. Moreover, the “predicted median TE” value is “approximately 67%” in assay [4] (60 mg dose) and roughly 79% in assay [4] (150 mg dose). The figures for the receptor occupancy at 20 mg/kg in assay [5] (setting [8]) and in assay [5] (setting [9]) were 53% and 23%, respectively. Moreover, the receptor occupancy at 100 mg/kg in assay [5] (setting [8]) turned out to be 72 ± 3.7%; in assay [5] (setting [9]), 30 ± 5.6%. Moreover, the “target engagement (TE)” value in assay [6] (Part 1, single oral doses 10 mg to 400 mg, by 4 hours) is “dose dependent increase in TE”; in assay [6] (Part 2, daily dosing 10 mg to 150 mg), “dose-dependent increases in TE following doses between 10 mg and 120 mg and plateauing at the 120 mg and 150 mg dose levels”.
